Assay results as given in publication PMC6404402, “Design of indole- and MCR-based macrocycles as p53-MDM2 antagonists” (Beilstein Journal of Organic Chemistry, 2019).

Experiments:
[1] = target: 15N-labeled MDM2 (N-terminal domain of human MDM2, residues 1-118) (Homo sapiens, UniProt Q00987); experiment: 1H,15N HSQC NMR titration of 15N-labeled MDM2; format: binding; conditions: read-out: Kd MDM2; 1H,15N HSQC titration, 7–9 ligand/protein ratios 0 to 5; 0.20–0.35 mM 15N MDM2; 50 mM phosphate pH 7.4, 150 mM NaCl, 5 mM DTT, 10% D2O; 300K; 50 mM ligand stock in DMSO; weighted mean of KD's of most perturbed residues in fast chemical exchange
[2] = target: human MDM2 (residues 1-118) (Homo sapiens, UniProt Q00987); experiment: Fluorescence polarization (FP) competition binding assay; conditions: read-out: Ki MDM2; FP competition with 10 nM 5'FAM-LTFEHYWAQLTS (P2); MDM2 (1–118) at concentration yielding f0 = 0.8; 50 mM NaCl, 10 mM Tris pH 8.0, 1 mM EDTA, 5% DMSO; 15 min after mixing; room temperature; 485 nm excitation, 535 nm emission; n.a. = no activity against MDM2 protein

Row | Kd [1] [µM] | Ki [2] [µM] | Compound
1 | 4.8 | 5.49 | CC(C)(C)NC(=O)C(c1c[nH]c2cc(Cl)ccc12)N1CCCCCCCCCCNC(=O)COCC1=O (stereo not shown)
2 | 12.1 | 2.25 | CC(C)(C)NC(=O)C(c1c[nH]c2cc(Cl)ccc12)N1CCCCCCCCNC(=O)COCC1=O (stereo not shown)
